AlphaSeq binding of Ab-95 light chain variants to a spike HR2 peptide

Target peptide (SARS-CoV-2 spike, HR2 region): PDVDLGDISGINAS

Parent: Ab-95, a human scFv built as VH, a (GGGGS)3 linker, VL. Only the CDRs of the light chain vary.
VH: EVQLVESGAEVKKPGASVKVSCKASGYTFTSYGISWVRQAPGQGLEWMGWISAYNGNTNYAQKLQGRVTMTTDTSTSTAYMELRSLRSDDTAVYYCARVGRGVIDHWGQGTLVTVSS
VL: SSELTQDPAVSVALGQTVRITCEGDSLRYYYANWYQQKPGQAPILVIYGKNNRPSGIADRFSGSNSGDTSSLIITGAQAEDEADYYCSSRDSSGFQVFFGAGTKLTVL

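The parent was found by panning a naive human phage display library on the peptide. Variants in AAYL52 differ from the parent at up to three CDR positions; double and triple changes were sampled at random. Affinity was read by AlphaSeq, a pooled yeast mating assay with surface-displayed partners. Binding brings cells together so that they mate, and sequencing counts the barcode pairs among the diploids. Scores were corrected for input abundance and mapped to Kd with protein pairs of known affinity run in the same pool. The assay was run in three technical replicates.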

Substitutions are numbered in sequence along the VL above, starting at 1 (not Kabat). The read-out is the apparent dissociation constant on a log10 scale (nM): the lower, the stronger. The mean shown is taken over the replicates in which the pair was detected. "nd" means that the variant was in the library but no mating with the target was seen in that replicate; the authors take this as a sign of poor binding, and no number exists.

changes,"log10 Kd, replicates",mean log10 Kd (nM),signal with controls
R53Q S88L,3.39 nd nd,3.39,3 of 9 (3.98)
G94E F95N Q96A,3.17 nd 3.86,3.52,1 of 9 (4.34)
N51K R90A F98K,nd nd nd,nd,2 of 9 (3.51)
R28V G49V F98H,nd nd nd,nd,0 of 9
S26K S89H D91S,3.71 4.87 nd,4.29,2 of 9 (3.52)
E23N R28K A32T,1.97 1.85 1.70,1.84,4 of 9 (4.06)
L27C G94T Q96D,nd 4.75 nd,4.75,0 of 9
N52D P54S F95H,2.63 2.51 nd,2.57,2 of 9 (3.86)
E23W N33M S88M,2.35 2.17 1.85,2.12,4 of 9 (3.36)
K50C N52H,5.07 5.47 nd,5.27,6 of 9 (4.01)
E23V Y31L A32L,nd nd 4.10,4.10,4 of 9 (3.73)
S26P Y31A D91E,nd nd nd,nd,0 of 9
G49R S55T F98V,3.56 nd nd,3.56,5 of 9 (3.78)
G24M R53S Q96R,4.07 4.16 nd,4.11,2 of 9 (4.36)
E23A R28T,2.29 2.16 2.11,2.19,4 of 9 (3.84)
G49D S93Y Q96S,2.80 2.53 2.66,2.66,1 of 9 (3.06)
Y29V S89N F98S,nd nd nd,nd,1 of 9 (3.47)
N33Y P54L D91M,nd 4.22 4.52,4.37,5 of 9 (4.32)
E23A F95D,3.31 3.10 3.19,3.20,1 of 9 (3.83)
P54S S89H Q96C,2.73 2.33 3.23,2.76,4 of 9 (4.07)
Y29I A32R K50I,4.87 5.25 4.75,4.95,3 of 9 (4.24)
K50P R53T S88P,4.80 3.56 3.97,4.11,1 of 9 (4.38)
G24E L27A R90S,nd 3.85 nd,3.85,5 of 9 (4.28)
S26H R90I F98M,nd nd nd,nd,0 of 9
D25C S55M G94V,3.41 3.13 2.36,2.97,4 of 9 (4.21)
Y31L A32H P54Q,nd nd nd,nd,2 of 9 (3.84)
N51K P54Q D91L,4.04 4.43 nd,4.24,3 of 9 (3.49)
E23A R28Q P54H,3.00 5.49 nd,4.25,1 of 9 (3.77)
R28A K50N V97W,nd nd nd,nd,1 of 9 (2.71)
E23P N33S N51V,4.76 nd 4.13,4.44,1 of 9 (3.61)
G24L S55R F95A,4.67 nd 3.27,3.97,3 of 9 (3.71)
K50V S88R V97Q,5.16 3.35 3.61,4.04,3 of 9 (3.94)
P54N D91H,3.47 3.25 3.35,3.36,5 of 9 (4.25)
Y29A N51V F98A,2.99 nd nd,2.99,1 of 9 (2.46)
N33I S88D G94A,4.21 4.12 nd,4.17,3 of 9 (3.81)
S26R A32W D91G,nd 3.74 4.40,4.07,1 of 9 (3.96)
E23S N52S R53C,3.61 3.35 3.19,3.38,3 of 9 (3.83)
G24V Y31Q G94M,3.93 3.73 3.41,3.69,6 of 9 (3.83)
N52L P54F S93P,3.84 nd nd,3.84,5 of 9 (3.94)
S26I N33A S92L,nd nd 3.35,3.35,2 of 9 (3.94)
E23P Y31I N51E,nd nd nd,nd,2 of 9 (3.68)
Y29M R90C Q96C,3.06 3.84 3.46,3.45,1 of 9 (4.33)
E23T G49F G94K,4.21 nd nd,4.21,4 of 9 (3.80)
G24L R28G S55C,3.09 3.32 2.83,3.08,1 of 9 (3.39)

A selection of 7 entries from above:

| changes | log10 Kd, replicates | mean log10 Kd (nM) | signal with controls |
|---|---|---|---|
| G49D S93Y Q96S | 2.80 2.53 2.66 | 2.66 | 1 of 9 (3.06) |
| Y29I A32R K50I | 4.87 5.25 4.75 | 4.95 | 3 of 9 (4.24) |
| Y29A N51V F98A | 2.99 nd nd | 2.99 | 1 of 9 (2.46) |
| E23P N33S N51V | 4.76 nd 4.13 | 4.44 | 1 of 9 (3.61) |
| P54N D91H | 3.47 3.25 3.35 | 3.36 | 5 of 9 (4.25) |
| E23P Y31I N51E | nd nd nd | nd | 2 of 9 (3.68) |
| N51K R90A F98K | nd nd nd | nd | 2 of 9 (3.51) |

Nonspecific signal, from three strains lacking the peptide, appeared in 28% of pairings of library AAYL52, centred on 3.91 (5% of these signals below 2.90); values are not corrected for it. The control count says in how many pairings with the empty strains this scFv gave a signal, with their mean in brackets.

From the AlphaSeq antibody data of Engelhart et al. 2022 (doi:10.1038/s41597-022-01779-4), copy in the FLAb collection.